Source: ChEMBL document CHEMBL3400036, “Novel 4-substituted-N,N-dimethyltetrahydronaphthalen-2-amines: synthesis, affinity, and in silico docking studies at serotonin 5-HT2-type and histamine H1 G protein-coupled receptors” (Bioorg Med Chem, 2015)

Chains of the proteins cited; added tags and fusions are not shown. Lines headed by an entry give the natural chain unless they say otherwise; changes in a name come on top.
UniProt P28223, whole entry: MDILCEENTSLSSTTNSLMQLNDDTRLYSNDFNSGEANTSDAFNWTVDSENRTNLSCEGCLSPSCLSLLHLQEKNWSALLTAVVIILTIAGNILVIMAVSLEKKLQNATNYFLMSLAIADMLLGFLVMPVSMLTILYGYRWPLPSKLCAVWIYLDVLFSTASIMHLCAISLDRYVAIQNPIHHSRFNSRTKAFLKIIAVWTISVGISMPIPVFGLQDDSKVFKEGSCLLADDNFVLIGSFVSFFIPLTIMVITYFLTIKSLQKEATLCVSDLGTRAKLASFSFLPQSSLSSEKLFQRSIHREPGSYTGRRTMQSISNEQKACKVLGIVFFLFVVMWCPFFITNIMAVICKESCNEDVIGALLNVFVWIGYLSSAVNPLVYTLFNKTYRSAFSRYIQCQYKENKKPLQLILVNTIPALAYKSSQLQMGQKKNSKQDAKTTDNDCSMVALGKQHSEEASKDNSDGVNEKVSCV
UniProt P28335: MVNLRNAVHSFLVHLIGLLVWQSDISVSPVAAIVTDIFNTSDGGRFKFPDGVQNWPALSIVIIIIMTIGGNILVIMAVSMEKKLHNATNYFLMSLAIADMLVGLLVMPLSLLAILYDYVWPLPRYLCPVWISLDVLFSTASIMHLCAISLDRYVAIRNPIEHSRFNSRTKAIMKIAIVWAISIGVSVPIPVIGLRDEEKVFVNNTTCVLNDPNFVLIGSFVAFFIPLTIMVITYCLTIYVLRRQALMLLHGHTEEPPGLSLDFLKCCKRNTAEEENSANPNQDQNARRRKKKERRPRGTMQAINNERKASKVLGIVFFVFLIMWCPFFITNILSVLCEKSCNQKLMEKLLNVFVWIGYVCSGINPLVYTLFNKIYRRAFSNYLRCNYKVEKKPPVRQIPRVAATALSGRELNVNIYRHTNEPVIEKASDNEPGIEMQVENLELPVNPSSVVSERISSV

Assays:
[1] = target: 5-hydroxytryptamine receptor 2A (Homo sapiens, UniProt P28223); assay: Displacement of [3H]Ketanserin from human 5-HT2A receptor expressed in HEK293 cells by scintillation counting analysis; assay type: cell-based
[2] = target: 5-hydroxytryptamine receptor 2C (Homo sapiens, UniProt P28335); assay: Displacement of [3H]Mesulergine from human 5-HT2C-INI receptor expressed in HEK293 cells by scintillation counting analysis; assay type: cell-based

Row | SMILES | Ki [1] | Ki [2]
1 | CN(C)[C@H]1Cc2ccccc2[C@H](C2CCCCCCC2)C1 | 370 nM | 800 nM
2 | CN(C)[C@H]1Cc2ccccc2[C@H](c2cccc(F)c2)C1 | 320 nM | 
3 | CN(C)[C@H]1Cc2ccccc2[C@H](c2cccc(-c3ccccc3)c2)C1 | 650 nM | 
